Laboratory results from patent publication EP1214299B1, “MUSCARINIC ANTAGONISTS” (SCHERING CORPORATION, priority 1999, dated 2001).

The chains behind the UniProt entries cited, without tags or fusion partners. Where a name states a change or a piece, a line headed by the entry shows the natural chain unless it says otherwise.
UniProt P08172, whole entry: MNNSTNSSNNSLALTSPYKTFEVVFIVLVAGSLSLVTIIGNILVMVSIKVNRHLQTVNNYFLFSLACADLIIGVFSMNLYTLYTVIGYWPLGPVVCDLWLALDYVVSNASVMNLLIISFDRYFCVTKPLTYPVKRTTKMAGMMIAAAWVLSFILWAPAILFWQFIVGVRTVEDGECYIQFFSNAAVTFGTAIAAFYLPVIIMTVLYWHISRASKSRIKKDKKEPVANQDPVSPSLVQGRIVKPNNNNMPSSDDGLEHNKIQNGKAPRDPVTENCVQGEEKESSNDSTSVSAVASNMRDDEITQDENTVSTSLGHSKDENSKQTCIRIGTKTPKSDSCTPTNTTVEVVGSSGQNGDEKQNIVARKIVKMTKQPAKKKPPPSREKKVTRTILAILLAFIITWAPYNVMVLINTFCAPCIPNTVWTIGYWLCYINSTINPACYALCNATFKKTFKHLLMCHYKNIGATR
UniProt P08912, whole entry: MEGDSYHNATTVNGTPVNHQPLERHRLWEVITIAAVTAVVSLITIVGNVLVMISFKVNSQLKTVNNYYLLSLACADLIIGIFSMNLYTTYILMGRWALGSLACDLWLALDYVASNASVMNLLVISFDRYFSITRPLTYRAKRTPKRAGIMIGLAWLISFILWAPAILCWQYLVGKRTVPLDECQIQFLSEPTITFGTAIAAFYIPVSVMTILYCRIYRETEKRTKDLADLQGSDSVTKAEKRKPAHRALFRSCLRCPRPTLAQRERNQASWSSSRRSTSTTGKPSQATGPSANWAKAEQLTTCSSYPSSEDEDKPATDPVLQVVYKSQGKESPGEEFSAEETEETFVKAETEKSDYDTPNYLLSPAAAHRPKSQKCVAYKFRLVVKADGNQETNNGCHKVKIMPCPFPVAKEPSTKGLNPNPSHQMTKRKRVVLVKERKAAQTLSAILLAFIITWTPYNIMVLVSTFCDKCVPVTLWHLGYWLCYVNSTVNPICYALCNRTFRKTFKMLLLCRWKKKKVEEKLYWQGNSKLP
UniProt P20309, whole entry: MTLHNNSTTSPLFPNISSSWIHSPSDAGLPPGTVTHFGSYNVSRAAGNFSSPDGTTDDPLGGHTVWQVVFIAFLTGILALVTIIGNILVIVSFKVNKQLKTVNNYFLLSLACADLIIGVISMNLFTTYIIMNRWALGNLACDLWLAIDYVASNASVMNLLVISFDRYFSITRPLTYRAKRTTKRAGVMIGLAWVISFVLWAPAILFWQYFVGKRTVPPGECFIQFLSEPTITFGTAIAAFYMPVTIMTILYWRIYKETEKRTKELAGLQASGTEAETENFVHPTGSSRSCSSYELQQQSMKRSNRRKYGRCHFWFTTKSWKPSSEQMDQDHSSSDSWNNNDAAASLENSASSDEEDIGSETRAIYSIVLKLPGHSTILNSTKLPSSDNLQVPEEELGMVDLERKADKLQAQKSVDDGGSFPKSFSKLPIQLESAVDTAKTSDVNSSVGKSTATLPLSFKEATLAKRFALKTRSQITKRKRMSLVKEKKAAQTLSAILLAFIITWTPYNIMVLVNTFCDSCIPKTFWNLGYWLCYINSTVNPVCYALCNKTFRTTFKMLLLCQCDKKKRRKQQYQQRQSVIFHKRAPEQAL
UniProt P08173, whole entry: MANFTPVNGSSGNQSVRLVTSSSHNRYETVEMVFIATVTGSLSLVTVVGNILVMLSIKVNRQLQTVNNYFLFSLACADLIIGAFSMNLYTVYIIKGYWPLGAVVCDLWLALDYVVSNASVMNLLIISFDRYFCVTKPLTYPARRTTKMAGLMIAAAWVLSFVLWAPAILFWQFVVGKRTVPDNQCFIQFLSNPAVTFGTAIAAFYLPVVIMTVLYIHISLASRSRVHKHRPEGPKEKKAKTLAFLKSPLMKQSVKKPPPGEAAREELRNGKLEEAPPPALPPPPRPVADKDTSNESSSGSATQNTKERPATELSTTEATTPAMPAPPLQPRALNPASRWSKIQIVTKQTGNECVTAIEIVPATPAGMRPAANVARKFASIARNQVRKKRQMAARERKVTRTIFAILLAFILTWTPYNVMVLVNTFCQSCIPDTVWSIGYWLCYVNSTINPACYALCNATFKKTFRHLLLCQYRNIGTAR
UniProt P11229: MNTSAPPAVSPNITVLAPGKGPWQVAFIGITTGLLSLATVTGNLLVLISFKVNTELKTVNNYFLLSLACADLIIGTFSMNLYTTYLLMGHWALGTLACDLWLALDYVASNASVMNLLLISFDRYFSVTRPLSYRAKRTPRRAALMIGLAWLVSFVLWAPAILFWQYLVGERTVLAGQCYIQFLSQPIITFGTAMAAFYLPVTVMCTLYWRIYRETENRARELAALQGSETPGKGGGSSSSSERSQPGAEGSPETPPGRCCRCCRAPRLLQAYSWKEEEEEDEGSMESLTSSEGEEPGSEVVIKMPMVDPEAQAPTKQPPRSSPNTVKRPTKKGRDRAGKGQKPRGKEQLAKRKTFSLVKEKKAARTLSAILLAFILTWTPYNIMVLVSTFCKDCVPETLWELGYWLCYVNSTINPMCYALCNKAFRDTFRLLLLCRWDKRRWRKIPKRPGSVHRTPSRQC

Assays:
Assay in all cases: biochemical
[1] = target: human m2 muscarinic receptor (Homo sapiens, UniProt P08172)
[2] = target: m5 (Homo sapiens, UniProt P08912)
[3] = target: human m3 muscarinic receptor (Homo sapiens, UniProt P20309)
[4] = target: human m4 muscarinic receptor (Homo sapiens, UniProt P08173); assay type: binding
[5] = target: human m1 muscarinic receptor (Homo sapiens, UniProt P11229); assay type: binding

Row | Structure (SMILES) | Ki [1] | Ki [2] | Ki [3] | Ki [4] | Ki [5]
1 | COc1ccc(S(=O)(=O)c2ccc(C3(C4CCN(C5CCN(C(=O)c6cccc(F)c6N)CC5)CC4)OCCO3)cc2)cc1 [Example 2F] | 0.513 nM | 16.8 nM | 56.5 nM | 9.75 nM | 145 nM
2 | COc1ccc(S(=O)(=O)c2ccc(C3(C4CCN(C5CCN(C(=O)c6cccc(C)c6N)CC5)CC4)OCCO3)cc2)cc1 [Example 2] | 0.389 nM | 22.4 nM | 97.2 nM | 13.5 nM | 242 nM
3 | Nc1cc(F)ccc1C(=O)N1CCC(N2CCC(C3(c4ccc(S(=O)(=O)c5cccc(Cl)c5)cc4)OCCO3)CC2)CC1 [Example 3E] | 0.115 nM | 4 nM | 16 nM | 5.36 nM | 42.8 nM
4 | Nc1ccccc1C(=O)N1CCC(N2CCC(Cc3ccc(S(=O)(=O)c4cccc(Cl)c4)cc3)CC2)CC1 [Example 7A] | – | 41.8 nM | 612 nM | – | –
